Values quoted from earlier work in patent US6417010B1, “Methods and apparatus for synthesizing labeled combinatorial chemistry libraries” (Discovery Partners International, priority 1993, dated 2002).

Biological target: Monoclonal antibody 3E7
Conditions: solution assays, MAb 3E7; read-out: equilibrium binding constants (Kd); cited from earlier work

Question: For Tyr-Gly-Gly-L-Phe-L-Leu [YGGFL], which Kd is on record?
Answer: 6.6 nM
